From PMC8758481, “Astroglial tracer BU99008 detects multiple binding sites in Alzheimer’s disease brain” (Molecular Psychiatry, 2021)

Tested on: imidazoline-2 binding sites (I2BS)
Test: ^3H-BU99008 competition binding with unlabelled BU99008 in the presence of MAO B inhibitors
Design: species or system human
Method: A similar protocol as saturation binding assay was performed after 1 h incubation and the binding was quantified using the scintillation counter.
The competition binding data was fitted and analysed using non-linear regression competitive-binding function of GraphPad Prism 8.3 software to determine IC50 (half-maximal inhibitory concentration) values.

Structure (SMILES): C#CCN(C)[C@H](C)Cc1ccccc1 [deprenyl, (R)-(-)-Deprenyl]
- effect on binding of BU99008 to the SH binding sites (CN, ^3H-BU99008 competition): completely blocked
- decrease in ^3H-BU99008 total binding (CN, lower concentration ranges [10^-14-10^-9]): 15–30%
- effect on binding of BU99008 to HA binding sites (both CN and AD cases, increasing concentrations of inhibitor): not affected
